{"source": "ChEMBL document CHEMBL6120983", "about": "“Synthesis and Structure-Activity Relationship of Covalent Inhibitors of SARS-CoV-2 Papain-Like Protease with Antiviral Potency” (Bioorg Med Chem Lett, 2025)", "target": "Replicase polyprotein 1ab (Severe acute respiratory syndrome coronavirus 2, UniProt P0DTD1)", "assay": "Inhibition of SARS-CoV-2 papain-like protease using Z-Arg-Leu-Arg-Gly-Gly-AMC as substrate incubated for 15 mins", "data": [{"smiles": "COC(=O)/C=C\\C(=O)NNC(=O)CCc1ccccc1C(=O)N[C@H](C)c1cccc2ccccc12", "values": [{"measurement": "IC50", "result": 150, "unit": "nM"}]}, {"smiles": "COC(=O)/C=C/C(=O)NNC(=O)CCc1ccccc1C(=O)N[C@H](C)c1cccc2ccccc12", "values": [{"measurement": "IC50", "result": 190, "unit": "nM"}]}]}
